In publication PMC6212594, “Structural insights into the π-π-π stacking mechanism and DNA-binding activity of the YEATS domain” (Nature Communications, 2018):

B1: AF9-YEATS domain (aa 1-138), P42568 R61E; K63E; K67E (protein)
chain: MASSCAVQVKLELGHRAQVRKKPTVEGFTHDWMVFVRGPEHSNIQHFVEKVVFHLHESFPEPERVCEDPPYKVEESGYAGFILPIEVYFKNKEEPRKVRFDYDLFLHLEGHPPVNHLRCEKLTFNNPTEDFRRKLLKA

Legend:
AF9-YEATS (Homo sapiens) = test: EMSA; settings: EMSA: 20 mM Tris-HCl pH 7.5, 150 mM NaCl (nucleosomes: plus 0.1 mM EDTA, 10% glycerol), 30 min at room temperature; 5-10% native PAGE in 0.2x TB or TBE on ice
[1] = biological target: H3K9cr-containing nucleosome core particle, P68431;P62805; test: EMSA; settings: chain shown with the change, 1 pmol/lane H3K9cr-NCP, 20 mM Tris-HCl pH 7.5, 150 mM NaCl, 0.1 mM EDTA, 10% glycerol, 30 min at room temperature, read off a plot

Molecule | Kd (AF9-YEATS (Homo sapiens)) [µM] | other: Norm. change (H3K9cr-NCP band intensity) ([1]; DNA:protein ratio 1:5, parent: est. 0.97) | other: Norm. change (H3K9cr-NCP band intensity) ([1]; DNA:protein ratio 1:30, parent: est. 0.26) | other: Norm. change (H3K9cr-NCP band intensity) ([1]; DNA:protein ratio 1:100, parent: est. 0.07)
15-bp dsDNA | 47 |  |  | 
20-bp dsDNA | 57 |  |  | 
B1 |  | 0.72 | 0.37 | 0.5
